Results on one molecule are retold here after BindingDB's records for patent US9328099 (Merck Sharp & Dohme, 2016).

The chains behind the UniProt entries cited, without tags or fusion partners. Where a name states a change or a piece, a line headed by the entry shows the natural chain unless it says otherwise.
UniProt P23458: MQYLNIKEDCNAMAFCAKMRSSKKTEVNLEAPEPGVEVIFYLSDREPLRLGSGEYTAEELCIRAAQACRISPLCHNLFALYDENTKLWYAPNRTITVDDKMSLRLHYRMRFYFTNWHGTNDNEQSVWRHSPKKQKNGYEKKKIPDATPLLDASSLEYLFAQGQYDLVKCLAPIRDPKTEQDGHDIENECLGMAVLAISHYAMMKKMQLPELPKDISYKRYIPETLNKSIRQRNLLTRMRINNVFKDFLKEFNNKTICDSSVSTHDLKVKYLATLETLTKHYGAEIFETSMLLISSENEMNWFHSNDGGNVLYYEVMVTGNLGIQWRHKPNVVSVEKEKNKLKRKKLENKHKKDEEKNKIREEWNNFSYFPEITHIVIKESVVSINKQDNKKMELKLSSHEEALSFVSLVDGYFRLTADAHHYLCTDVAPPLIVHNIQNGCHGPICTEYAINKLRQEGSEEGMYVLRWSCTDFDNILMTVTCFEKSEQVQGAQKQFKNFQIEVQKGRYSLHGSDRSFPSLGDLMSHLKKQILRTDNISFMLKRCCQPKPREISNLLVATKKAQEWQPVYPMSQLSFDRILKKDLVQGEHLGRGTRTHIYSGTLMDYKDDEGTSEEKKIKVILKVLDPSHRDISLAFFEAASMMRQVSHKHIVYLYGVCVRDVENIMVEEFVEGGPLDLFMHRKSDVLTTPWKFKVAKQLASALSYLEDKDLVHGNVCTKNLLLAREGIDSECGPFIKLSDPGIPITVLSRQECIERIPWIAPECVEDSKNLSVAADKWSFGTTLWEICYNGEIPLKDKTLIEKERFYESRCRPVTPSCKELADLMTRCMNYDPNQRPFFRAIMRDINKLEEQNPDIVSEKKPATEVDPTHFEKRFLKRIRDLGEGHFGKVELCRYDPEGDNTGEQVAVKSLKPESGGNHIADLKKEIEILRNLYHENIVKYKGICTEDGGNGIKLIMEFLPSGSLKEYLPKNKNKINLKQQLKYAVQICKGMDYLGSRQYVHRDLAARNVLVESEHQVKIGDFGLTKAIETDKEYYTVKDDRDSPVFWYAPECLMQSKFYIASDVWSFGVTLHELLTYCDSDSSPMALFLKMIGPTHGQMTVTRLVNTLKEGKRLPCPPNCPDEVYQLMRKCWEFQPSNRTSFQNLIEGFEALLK

The target of the assay is Tyrosine-protein kinase JAK1 (Homo sapiens, UniProt P23458). The assay is described as follows: HTRF Biochemical Assay. Conditions: 25 °C.

The molecule `COC1(c2nc3nc(-c4noc(=O)[nH]4)nc(-c4cncc(Cl)c4)c3n2C[C@H]2CC[C@H](C)CC2)CCCCC1` [US9328099, 48-2] gave an IC50 of 1 nM.
